## scFv variants of Ab-14 (heavy chain) against a SARS-CoV-2 spike peptide

The measurements come from Li et al. 2023 (doi:10.1038/s41467-023-39022-2) through the FLAb antibody collection.

Antigen: PDVDLGDISGINAS, a 14-residue peptide of the SARS-CoV-2 spike HR2 region.

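Phage display of a naive human antibody library on the peptide gave the parent. This is the validation round: designs drawn from the data on random variants, tested in the same kind of assay. Group labels follow the data file (Ctrl: baseline library sampled from a position-specific scoring matrix, with some repeated check sequences; Rand: our label for a block that the file lists under HC and that is probably the random mutants of the ten best first-round binders; En: ensemble of fine-tuned language models; GP: Gaussian process model; GPLM: also part of the Gaussian process libraries; HC: hill climbing; Gen: genetic algorithm; Gibbs: Gibbs sampling; a sequence that several methods proposed may carry one label only). AlphaSeq pools MATa yeast showing the antibodies with MATalpha yeast showing the peptide. Binding brings cells together so that they mate, and sequencing counts the barcode pairs among the diploids. A regression on co-assayed BCL2-family reference pairs converts the normalised counts of each replicate to an apparent Kd. Mating was done six times.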

The variants keep the light chain, the linker and the frameworks of Ab-14 (scFv order VH, a (GGGGS)3 linker, VL).
VH: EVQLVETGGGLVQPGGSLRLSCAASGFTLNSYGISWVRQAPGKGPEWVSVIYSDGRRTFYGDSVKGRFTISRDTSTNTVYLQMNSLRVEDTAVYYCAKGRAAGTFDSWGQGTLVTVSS
VL: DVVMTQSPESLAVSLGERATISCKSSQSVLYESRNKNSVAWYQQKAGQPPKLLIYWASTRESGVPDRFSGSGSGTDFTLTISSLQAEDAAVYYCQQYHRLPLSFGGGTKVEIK

Each variant is given by its three heavy chain CDRs, as the data file delimits them; those of the parent are GFTLNSYGIS, VIYSDGRRTFYGDSVK, GRAAGTFDS. Kd is apparent (estimated from mating counts) and averaged on the log scale over replicates with a signal. Smaller is tighter. An entry "no signal" has no value in the source: the pair was not observed among the diploids in any replicate. This suggests poor binding but is not conclusive. Values of this round are not directly comparable with the first-round values of the same sequences. The authors' rule: three or more of the six replicates give a measured affinity, fewer mean a poor binder. Background: pairings of all heavy chain designs with three empty control strains gave a value in 1% of cases (median 120 nM, 5th percentile 7.0 nM). Values in that range, when seen in few replicates, are hard to tell from nonspecific mating.

| Kd (apparent) | replicates with signal | CDR-H1 | CDR-H2 | CDR-H3 | group |
|---|---|---|---|---|---|
| 310 pM | 6/6 | GFDLDEYGIS | VIYADGMRTAYSDSVK | GQNAGTFDV | En_Gen |
| 8.0 nM | 6/6 | GFDLNEYGIS | VIYADGLRTQYASSFK | GDLAGYFMS | En_Gibbs |
| 54 nM | 2/6 | GFTLNSYGIS | VIYSDGRRTFYGDSVK | GQTAGTFDS | GPLM_Gen |
| no signal | 0/6 | GFDLDEYGIS | VIYADGKRTAYADSVK | GNQAGTFDL | En_Gen |
| no signal | 0/6 | GFTLNSYGIS | VIYSDGRRTFYHDDVK | GKQAGAFDS | Ctrl |
| 1.6 nM | 6/6 | GFTLNSYGIS | VIYSDGQRTFYSDSVK | GRTAGTFDS | GPLM_Gibbs |
| 14 nM | 1/6 | GFDLQEYGIS | VIYADGVRMAYTDSVK | GNWGGRDML | En_Gibbs |
| 1.2 nM | 6/6 | GFDLNEYGIS | VIYADGKRTYYADDVK | GNVAGTFDI | En_Gen |
| 810 pM | 6/6 | GFTLNSYGIS | VIYSDGRRTFYADSVK | GREAGTFDT | GPLM_Gen |
| 230 pM | 6/6 | GFDLNEYGIS | VIYADGQRTAYSDSVK | GGNAGTFDV | En_Gen |
| 51 nM | 4/6 | GFTLNDYGIS | VIYSDGRRTFYIDSVK | GRRAGTFDS | GP_HC |
| 15 nM | 6/6 | GFTLNSYGIS | VIYSDGVRTFYGDSVK | GRVAGTFDK | GP_Gibbs |
| 1.5 nM | 6/6 | GFDLNEYGIS | VIYADGMRKVYADSVK | GNVAGTFDT | En_Gen |
| no signal | 0/6 | GFNINEYGIS | VIYADGTRTAYANTVK | GKYVGTFVD | En_Gibbs |
| 17 nM | 4/6 | GFTLNSYGIS | VIYSDGRRTHYGDSVK | GYAAGTFDS | Ctrl |
| 1.0 nM | 6/6 | GFDLNEYGIS | VIYADGMRTAYTDSVK | GEVAGTFDL | En_Gen |
| 3.5 nM | 6/6 | GFDLNSYGIS | VIYSDGRRTFYGDSVK | GNTAGTFDS | GPLM_Gibbs |
| no signal | 0/6 | GFTLNSYGIS | VIYSDGRRTFYIDSVK | GKAAGTFIS | Ctrl |
| 2.1 nM | 6/6 | GFSLNSYGIS | VIYSDGRRTAYGDSVK | GSAAGTFDS | GPLM_Gen |
| 500 pM | 6/6 | GFDLNEYGIS | VIYADGMRTSYADSVK | GNEAGTFDV | En_Gen |
| no signal | 0/6 | GQNLDEYGIS | VIYADGMRKWYADDVK | GISSGFVII | En_Gibbs |
| 3.0 nM | 6/6 | GFDLNSYGIS | VIYSDGRRTFYVDSVK | GKTAGTFDS | GP_Gen |
| 110 nM | 6/6 | GFTLNSYGIS | VIYPDGRRTFYGDSVK | GRLAGTFDS | Ctrl |
| no signal | 0/6 | GFELNSYGIS | VIYSDGRRTFYGDSVK | GRTAGTFWS | GPLM_Gen |
| 1.1 µM | 4/6 | GFALNSYGIS | VIYSDGRRTFYGDSVK | GRAIGTFDS | Ctrl |
| no signal | 0/6 | GFNIDEYGIS | VIYADGMRTAYSNAVK | GVVNGGTIS | En_Gibbs |
| 14 nM | 3/6 | GFTLNSYGIS | VIYSDGKRTEYGDSVK | GRAAGTFDS | Ctrl |
| no signal | 0/6 | GFNLDEYGIS | VIYADGMRNSYRDKVK | GAHSFDLKT | En_Gibbs |
| 470 pM | 6/6 | GFDLNEYGIS | VIYADGRRTAYTDSVK | GHAAGTFDV | En_HC |
| 1.3 nM | 6/6 | GFSLDDYGIS | VIYADGKRTMYAESVK | GQIAGSLSN | En_Gibbs |
| 3.9 nM | 5/6 | GFTLNSYGIS | VIYSDGRRTFYGDSVK | GRLAGTFDP | Ctrl |
| 130 nM | 5/6 | GETLNSYGIS | VIYSDGRRTFYGDAVK | GRFAGTFDS | Ctrl |
| 1.5 µM | 2/6 | GQTLNEYGIS | VIYSDGRRTRYTDSVK | GRPAGTFDS | Rand |
| no signal | 0/6 | GFTLNEYGIH | VIYSDGRRTGYGDSVK | GRAAGTFDS | Ctrl |
| 1.2 nM | 6/6 | GFDLNSYGIS | VIYSDGRRTFYGDRVK | GRTAGTFDA | GP_Gen |
| no signal | 0/6 | GFTLNEYGIS | VIYSDGRRTFYGNSVK | GRAAVTFDQ | GPLM_HC |
| no signal | 0/6 | GFSINEYGIS | VIYADGNRSAYIDAVK | GNVGSSFLE | En_Gibbs |
| no signal | 0/6 | GYTLASYGIS | VIYSDGRRTFYGDSVK | GRAAGTFDS | Ctrl |
| 9.3 nM | 6/6 | GFTLYEYGIS | VIYSDGRRTFYGDSVK | GRAAGTFDK | GP_HC |
| 64 nM | 5/6 | GFTLNEYGIS | VIYSDGRRTFYGDSVK | GRQAGTFDA | GP_Gen |
| 3.0 nM | 6/6 | HFELNSYGIS | VIYSDGRRTFYADSVK | GRTAGTFDS | GP_Gen |
| 13 nM | 6/6 | GFSLNDYGIS | VIYSDGRRTFYSDSVK | GKAAGTFDS | GPLM_Gen |
| no signal | 0/6 | GFDLGEYGIS | VIYADGHRTAYSTKVK | GTIGGMFFN | En_Gibbs |
| 9.3 nM | 1/6 | AFTLNSYGIS | VIYSDGRRTFYDDSVK | GQLAGTFDS | GPLM_HC |
| no signal | 0/6 | GFNLDEYGIS | VIYADGTRTSYRDNVK | GVTGGHDVT | En_Gibbs |
| 12 nM | 6/6 | GFQLNSYGIS | VIYSDGRRTFYTDSVK | GEAAGTFDS | GP_Gen |
| 360 pM | 6/6 | GFDLEEYGIS | VIYADGRRTFYSDSVK | GEAAGTFDV | En_HC |
| 620 pM | 6/6 | GFSLNEYGIS | VIYSDGRRTFYADSVK | GRTAGTFDK | GPLM_Gen |
| 150 pM | 6/6 | GFDLNEYGIS | VIYADGRRTFYTDSVK | GQVAGTFNV | En_HC |
| 240 nM | 1/6 | GFALNSYGIS | VIYADGRRTFYGDSVK | GRAAGTVDS | Ctrl |
| 4.0 nM | 1/6 | GFDLNSYGIS | VIYSDGRRTFYGDSVK | GRAAWTFDA | GP_HC |
| no signal | 0/6 | GFTLNSYGIS | VIYSDGRRTSYGDSVK | GRAAGTFFS | Ctrl |
| no signal | 0/6 | GNTLNSYGIS | VIYSDGRRTFYGDSTK | GRAAGFFDS | Ctrl |
| 3.0 µM | 2/6 | GFTLDSYGIW | VICSDGRRTFYGDSVK | GRAAGTAAS | Rand |
| 400 pM | 6/6 | GFDLDEYGIS | VIYADGQRTAYADSVK | GTNAGTFDQ | En_Gen |
| 120 nM | 1/6 | GFTLNRYGIS | VIYSDGRRTFYSQAVK | GRSAGFFDS | Rand |
| 21 nM | 1/6 | GFDLNEYGIS | VIYADGQRTAYADNVK | GEVAGTFDM | En_Gen |
| 4.1 nM | 6/6 | GFLLNDYGIS | VIYSDGRRTFYHDSVK | GRTAGTFDS | GPLM_Gibbs |
| no signal | 0/6 | GFQLNSYGIS | VIYSDGRRTAYGDSVK | GIASGTFDS | Ctrl |
| 92 nM | 1/6 | GFTQNSYGIS | VIYSDGRRAFYDDSVK | GQLAGTFDS | Rand |

For reference, 5 entries of the list once more:

CDR-H1,CDR-H2,CDR-H3,group,Kd (apparent),replicates with signal
GFSLNDYGIS,VIYSDGRRTFYSDSVK,GKAAGTFDS,GPLM_Gen,13 nM,6/6
GFDLDEYGIS,VIYADGKRTAYADSVK,GNQAGTFDL,En_Gen,no signal,0/6
GFTLNSYGIS,VIYSDGRRTFYGDSVK,GRLAGTFDP,Ctrl,3.9 nM,5/6
GFTLYEYGIS,VIYSDGRRTFYGDSVK,GRAAGTFDK,GP_HC,9.3 nM,6/6
GFTLDSYGIW,VICSDGRRTFYGDSVK,GRAAGTAAS,Rand,3.0 µM,2/6